Measured affinities in a library of Ab-95 light chain variants

Reference: Engelhart et al. 2022, doi:10.1038/s41597-022-01779-4. File: FLAb, binding data.

All variants were tested on one target, the spike HR2 peptide PDVDLGDISGINAS (SARS-CoV-2).

Ab-95 is the parent antibody, in scFv form: VH, then three GGGGS repeats, then VL. The heavy chain is unchanged in all variants.
VH: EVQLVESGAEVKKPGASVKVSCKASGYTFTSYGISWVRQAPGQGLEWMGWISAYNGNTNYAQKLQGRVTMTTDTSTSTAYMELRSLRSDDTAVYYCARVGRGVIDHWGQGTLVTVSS
VL: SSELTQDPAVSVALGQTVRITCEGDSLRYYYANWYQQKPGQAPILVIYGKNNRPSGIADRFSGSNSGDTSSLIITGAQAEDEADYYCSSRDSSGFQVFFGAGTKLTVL

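The parent was found by panning a naive human phage display library on the peptide. Library AAYL52 holds single substitutions and randomly drawn double and triple substitutions in the CDRs. AlphaSeq pools MATa yeast showing the antibodies with MATalpha yeast showing the peptide. The frequency of each diploid, read from paired DNA barcodes, reflects how well the two displayed proteins bind. Read counts were normalised to the haploid input and turned into Kd by a linear fit to BCL2-family pairs of known affinity, for each replicate. Mating was done three times.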

Variants are written as CDR1, CDR2 and CDR3 of the light chain (limits as in the source). Parent: EGDSLRYYYAN, GKNNRPS, SSRDSSGFQVF.
Every variant below is changed at E23 of the VL (sequential numbering).
Affinities are written as log10 Kd with Kd in nM; a lower number is a better binder.
The mean shown is taken over the replicates in which the pair was detected.
"not detected" means that the variant was in the library but no mating with the target was seen in any replicate; the authors take this as a sign of poor binding, and no number exists.

CDR-L1,CDR-L2,CDR-L3,"log10 Kd (nM), mean",detected
IGDSLRYYYAV,GKNNRPS,SSRDSSGFQVF,4.08,2/3
NGDSLRYYYAG,GKNNRPS,SSNDSSGFQVF,4.33,2/3
TGDSLMYYYQN,GKNNRPS,SSRDSSGFQVF,4.05,2/3
AGDSLRYYYAN,GKEERPS,SSRDSSGFQVF,1.95,3/3
CGDSLRTYYAN,GKNNRPS,SSRDSRGFQVF,3.19,3/3
RGDSLRYYYAN,GKNSRPS,SSRDYSGFQVF,2.52,3/3
AGDSLRYYYAN,GKNNRPS,SRRDSSGFQEF,3.59,1/3
NGDSLRGYYAN,GKNNRPS,SSRDSSGAQVF,1.27,3/3
IGDSLRYYRIN,GKNNRPS,SSRDSSGFQVF,3.04,3/3
SGDSLRYYYAN,GKNNPPS,RSRDSSGFQVF,3.83,2/3
YGDSLRYYYAN,GKNNRPS,SSRDGIGFQVF,2.62,3/3
HGDSLRYYYAN,CKNNRPS,SSRDSSGFNVF,3.78,3/3
PGDSLRYVYAN,GKNNRPS,SSRDSSGFQMF,4.48,3/3
MGDSLRYYYAN,GKNNRCS,SSRDSEGFQVF,4.11,3/3
NGDCLRYYYAN,GKNNDPS,SSRDSSGFQVF,4.50,1/3
TGDSLRAYYAN,GKNLRPS,SSRDSSGFQVF,1.55,3/3
YGDSLRYYGAN,GKNKRPS,SSRDSSGFQVF,2.34,3/3
AGDSKRYYYAN,GKNNRPS,SSRDESGFQVF,3.85,3/3
YGDSLRYYYAN,GKNNRFS,SPRDSSGFQVF,4.53,1/3
KGDQLRYYYAN,GKNNRPS,SSRDSSGFGVF,4.17,1/3
PGDSLRYYRAN,GKNNAPS,SSRDSSGFQVF,2.95,1/3
MGDSLRYYYAN,GKNNRPD,SSRDSSGFQTF,2.28,3/3
KGDSLRYYAAN,GKNNRPS,SSRDSSSFQVF,2.03,3/3
NGDSLRYYQAN,GKNNRPS,SSRDSSGFWVF,1.48,3/3
FGLSLRYYYAN,GKNNRPS,SSRDSAGFQVF,3.19,2/3
TGDSLRYFYAN,GKNNRPS,SSRDSSDFQVF,3.80,1/3
KGDSLRYYYAN,GKNNRDS,SSRDSSWFQVF,2.32,3/3
RGDSLRYYYAN,GDNNRPS,SSRDSCGFQVF,2.11,3/3
NGDSLRYYYAN,GKNNVPS,SSRDSSGFQVF,2.40,3/3
PGDSLRYYYAN,GKNNRPS,SSRDSQGFKVF,not detected,0/3
SGDSLRWYYAN,GKNNRPS,STRDSSGFQVF,2.62,3/3
DGDSLRTYYAN,GKNNRAS,SSRDSSGFQVF,1.44,3/3
GGDSLRTYYAN,GKNNRPS,SSRDSSGYQVF,1.76,3/3
RGDSLRYYYAN,GGNNRPS,SSRDSSGFQVF,1.60,3/3
YGSSLRYYYNN,GKNNRPS,SSRDSSGFQVF,3.59,3/3
TGDSLRYYYAN,GKNNRPF,SSRDSSGFQVF,2.10,3/3
QLDSLRYYYAN,GKNNRPS,SQRDSSGFQVF,2.92,3/3
HGDSLRYRYAN,GKNNRPS,SSRDCSGFQVF,2.04,3/3
TGDSLRYYYAN,GWNNRPS,SQRDSSGFQVF,3.13,1/3
PGDSLRVYYAN,GKNNRPS,YSRDSSGFQVF,4.42,3/3
MYDSLRYYFAN,GKNNRPS,SSRDSSGFQVF,not detected,0/3
YSDSLRYYYAN,GKNNRPS,FSRDSSGFQVF,3.01,3/3
HGDSLRYYYAN,GLNNRPS,SSRDSSGFQHF,4.87,2/3
TGDSLRYYYAN,IKNNRPS,SSRDSSGFQKF,not detected,0/3
FGDSLYYYYAN,GKNNRPS,SSCDSSGFQVF,3.75,3/3
DRDSLRKYYAN,GKNNRPS,SSRDSSGFQVF,3.86,3/3
YGDALRYYYAN,GKNNRPS,SSRDSKGFQVF,3.48,3/3

Extract of 7 entries:

CDR-L1,CDR-L2,CDR-L3,"log10 Kd (nM), mean",detected
IGDSLRYYYAV,GKNNRPS,SSRDSSGFQVF,4.08,2/3
NGDSLRYYYAG,GKNNRPS,SSNDSSGFQVF,4.33,2/3
SGDSLRWYYAN,GKNNRPS,STRDSSGFQVF,2.62,3/3
MYDSLRYYFAN,GKNNRPS,SSRDSSGFQVF,not detected,0/3
CGDSLRTYYAN,GKNNRPS,SSRDSRGFQVF,3.19,3/3
PGDSLRVYYAN,GKNNRPS,YSRDSSGFQVF,4.42,3/3
MGDSLRYYYAN,GKNNRCS,SSRDSEGFQVF,4.11,3/3

Background: pairings of library AAYL52 with three empty control strains gave a value in 28% of cases (median 3.91, 5th percentile 2.90). Values in that range, when seen in few replicates, are hard to tell from nonspecific mating.